These results are taken from PubChem BioAssay AID1441 (NMMLSC, 2008).

Sequences of proteins named here, by UniProt entry; tags and fusion partners are left off.
UniProt O15492, whole entry, looked up: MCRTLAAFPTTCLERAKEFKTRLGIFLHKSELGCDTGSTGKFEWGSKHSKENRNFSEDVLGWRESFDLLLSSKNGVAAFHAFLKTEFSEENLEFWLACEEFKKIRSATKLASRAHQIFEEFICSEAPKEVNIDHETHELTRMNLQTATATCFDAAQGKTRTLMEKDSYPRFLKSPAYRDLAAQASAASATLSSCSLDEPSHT
UniProt P09471, whole entry, looked up: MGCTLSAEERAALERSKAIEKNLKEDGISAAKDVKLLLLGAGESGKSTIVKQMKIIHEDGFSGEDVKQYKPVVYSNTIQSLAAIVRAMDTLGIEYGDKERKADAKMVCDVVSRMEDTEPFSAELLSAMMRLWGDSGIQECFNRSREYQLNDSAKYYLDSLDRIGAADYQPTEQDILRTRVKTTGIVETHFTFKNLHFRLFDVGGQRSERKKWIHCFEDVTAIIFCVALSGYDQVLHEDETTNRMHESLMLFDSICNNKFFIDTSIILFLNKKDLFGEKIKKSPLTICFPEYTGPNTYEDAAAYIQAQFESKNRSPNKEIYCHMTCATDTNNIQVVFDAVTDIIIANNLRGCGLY

The entries are a selection whose mix differs from that of the whole data set. Some structures show a salt or complex split into parts, the way the source records it. Active and inactive are the calls of the source. How the calls were made is not given here.

The experiment addresses Regulator of G-protein signaling 16 (Homo sapiens) + Guanine nucleotide-binding protein G(o) subunit alpha (Homo sapiens) (UniProt O15492+P09471). The experiment can be described thus: modulators of RGS16 binding to Galphao, primary screen, biochemical, human proteins, multiplexed bead flow cytometry (AID 1441).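 Further: Galphao activated by GDP with aluminum fluoride before binding.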 The settings on record: bead-based flow cytometry RGS16-Galphao binding, fluorescence; at 10 µM; actives lie on both sides. (In flow cytometry, cells or beads pass a laser one at a time.)
For the compound `COc1ccc(OP(C)(=O)Nc2ccc(Br)cc2)cc1` (stereo unspecified), the binding response (% of control) was inactive: 37.2%.
Turning to `CCN(CC)CC(O)COC(=O)C(O)(c1ccccc1)C1CCCCC1` (stereo unspecified), the binding response (% of control) was inactive: 103%.
Under `Cc1ccccc1NP(C)(=O)Nc1ccccc1C` stands inactive: 106%.
Under `CP(=O)(Nc1ccc2c(c1)OCCO2)Oc1ccccc1` (stereo unspecified) stands inactive: 49.3%.
In the case of `c1nnnn1CCn1cnnn1`, the binding response (% of control) was inactive: 95.9%.
The result for `CCOP(C)(=S)SCC(=O)NC(C)(CC)C(=O)O` (stereo unspecified) reads inactive: 105%; that for `O=P(Nc1nccs1)(c1ccccc1)c1ccccc1`, inactive: 100%.
With `CC(C)C(=O)NC(Sc1ccccc1)C(Cl)(Cl)Cl` (stereo unspecified), the binding response (% of control) is inactive: 103%.
In the case of `CP(=O)(Nc1ccc(SC(F)(F)F)cc1)Oc1ccc(F)cc1` (stereo unspecified), the binding response (% of control) is inactive: 97.4%.
The result for `O=C(OC1CN2CCC1CC2)c1cccc(Cl)c1` (stereo unspecified) reads inactive: 89.6%; that for `C(Cc1nn[nH]n1)Cc1nn[nH]n1`, inactive: 104%.
For the compound `Nc1ccc([As](=O)(O)c2ccc([N+](=O)[O-])cc2)cc1`, the binding response (% of control) is inactive: 90.7%.
The result for `O=[N+]([O-])c1cc([N+](=O)[O-])c(NCC2CCS(=O)(=O)C2)c([N+](=O)[O-])c1` (stereo unspecified) reads inactive: 98.5%.
The result for `Cc1cc(-c2cccc3ccccc23)c(C)cn1.O=[N+]([O-])c1cc([N+](=O)[O-])c(O)c([N+](=O)[O-])c1` reads inactive: 110%; that for `O=[As](O)(c1ccccc1)c1ccc(O)cc1`, inactive: 82%.
For the compound `O=[N+]([O-])c1ncn(CCn2cnc([N+](=O)[O-])n2)n1`, the binding response (% of control) is inactive: 97.6%.
Under `O=[N+]([O-])c1ccc(OP2(=O)COCCO2)cc1` (stereo unspecified) stands inactive: 95.7%; under `CC(=O)NC(SC(=S)N(C)C)C(Cl)(Cl)Cl` (stereo unspecified), inactive: 107%; under `COc1ccc(NP(C)(=O)Oc2ccccc2OC)cc1` (stereo unspecified), inactive: 101%.
Under `O=P(Nc1nc2ccccc2s1)(c1ccccc1)c1ccccc1` stands inactive: 99.3%; under `CN(C)CCOC(=O)C(O)(c1ccccc1)C1CCCCC1` (stereo unspecified), inactive: 105%.
The result for `O=P(Nc1ccccn1)(c1ccc(Br)cc1)c1ccc(Br)cc1` reads inactive: 90.4%; that for `COc1ccc(OP(C)(=O)Nc2cccc(Br)c2)cc1` (stereo unspecified), inactive: 98.6%; that for `CCCCCOc1ccc(NP(C)(=O)Oc2ccc(Cl)cc2Cl)cc1` (stereo unspecified), inactive: 97.2%.
As for `CN(C)C(=O)Oc1noc2ccccc12`, the binding response (% of control) was inactive: 95.8%.
The result for `Cc1ccccc1OP(=O)(Nc1ccccn1)Oc1ccccc1C` reads inactive: 104%; that for `CP(=O)(Nc1ccccc1)Oc1ccc(F)cc1` (stereo unspecified), inactive: 101%.
The result for `CCC(=O)N1C2C3N(C(=O)CC)C1C1N(C(=O)CC)C(C(N1C(=O)CC)N3C(=O)CC)N2C(=O)CC` reads inactive: 144%.
`Cc1ccc(OP(=O)(Nc2ccccn2)Oc2ccc(C)cc2)cc1`: the binding response (% of control) is inactive: 107%.
In the case of `COC(=O)c1cc2c(s1)N=C(c1ccccc1)N(C)P2(=O)N1CCOCC1` (stereo unspecified), the binding response (% of control) was inactive: 119%.
For the compound `COc1ccc(OP(C)(=O)Nc2ccc(SC(F)(F)F)cc2)cc1` (stereo unspecified), the binding response (% of control) is inactive: 102%.
As for `CCOC(=O)c1ccc(NP(C)(=O)Oc2ccc(F)cc2)cc1` (stereo unspecified), the binding response (% of control) was inactive: 93.2%.
Turning to `CCOC(=O)NC(Sc1ccccc1)C(Cl)(Cl)Cl` (stereo unspecified), the binding response (% of control) was inactive: 84.9%.
Under `c1ccc(-c2nn[nH]n2)c(-c2nn[nH]n2)c1` stands inactive: -1.45%; under `O=C(NC1CCS(=O)(=O)C1)NP(=S)(Oc1ccccc1)Oc1ccccc1` (stereo unspecified), inactive: 105%; under `CCNC(=S)/N=C(\N)N[N+](=O)[O-]`, inactive: 99.9%.
Take `CC(=O)Nc1ccc(Oc2c([N+](=O)[O-])cc([N+](=O)[O-])cc2[N+](=O)[O-])cc1`: the binding response (% of control) is inactive: 103%.
In the case of `CC(=O)Nc1ccc([As](=O)(O)O)c(O)c1`, the binding response (% of control) is inactive: 103%.
Regarding `COc1ccc2c(c1O)-c1c(O)c(OC)cc3c1[C@H](C2)[N+](C)(C)CC3.O=[N+]([O-])c1cc([N+](=O)[O-])c([O-])c([N+](=O)[O-])c1[O-]`, the binding response (% of control) is inactive: 92.7%.
The result for `C[C@H]1OP(=O)(Oc2ccccc2)C[C@@H]2O[C@@H]21` (stereo partly specified) reads inactive: 99.8%.
Under `C[C@@H]1C=CCP(=O)(Oc2ccccc2)O1` (stereo partly specified) stands inactive: 102%; under `O=C(OCCN1CCN(CCOCc2ccccc2)CC1)C(O)(c1ccccc1)c1ccccc1`, inactive: 96.7%; under `O=C(OC1CN2CCC1CC2)c1ccc([N+](=O)[O-])cc1` (stereo unspecified), inactive: 102%.
Take `CC(C)c1ccc(OP(C)(=O)Nc2ccc(SC(F)(F)F)cc2)cc1` (stereo unspecified): the binding response (% of control) is inactive: 101%.
Under `CC(C)(C)C(=O)NC(Sc1ccccc1)C(Cl)(Cl)Cl` (stereo unspecified) stands inactive: 99%.
For the compound `CP(=O)(Nc1ccccc1F)Oc1ccccc1` (stereo unspecified), the binding response (% of control) is inactive: 92.9%.
The result for `CCOc1ccc(C2=NCC(CBr)S2)cc1` (stereo unspecified) reads inactive: 135%.
For `CCOP(=O)(Nc1cccc2ccccc12)OCC`, the binding response (% of control) was inactive: 100%.
Under `Nc1cccc2c([As](=O)(O)O)cccc12` stands inactive: 27.8%; under `Cc1ccc(NCCc2c([N+](=O)[O-])cc([N+](=O)[O-])cc2[N+](=O)[O-])cc1`, inactive: 87%.
The result for `Cc1cc(C)cc(OP(C)(=O)Nc2ccccn2)c1` (stereo unspecified) reads inactive: 103%.
